# System: 266 human kinases
# Assay type: biochemical
# Details: JNK1α1(h); peptide 100 μM
# Experimental: Every kinase activity measurement was conducted in duplicate.
# IC50 (half maximal inhibitory concentrations) value for the MK2 inhibitor peptides identified below was determined using Millipore's IC50 Profiler Express service. […] Specifically, in these assays, a positively charged substrate is phosphorylated with a radiolabeled phosphate group from an ATP if the kinase is not inhibited by an inhibitor peptide. The positively charged substrate then is attracted to a negatively charged filter membrane, quantified with a scintillation counter, and compared to a 100% activity control.
sequence,measurement,value
YARAAARQARAKALNRQLGVA (Mammalian) [MMI-0200],% activity,106%
